Data published in PubChem BioAssay AID720532 (National Center for Advancing Translational Sciences (NCATS), 2013).
The entries are a selection whose mix differs from that of the whole data set. Some tests of the compounds listed are not included; inactive here does not mean inactive elsewhere. Records with an inconclusive call do not appear. Calls of active or inactive are those of the source. Calls come from the whole dose curve; tested in HEK293 cells.

Experiment: qHTS for Inhibitors of binding or entry into cells for Marburg Virus
Settings: Marburg virus pseudotype entry/binding inhibition, cell-based; at 49.2 µM (top of the series)
% is set by controls: 0 for no effect and ±100 for the full control effect.

Structure (SMILES) | activity change, negative = inhibition
CN1CCCC(OC(=O)C(O)(c2ccccc2)c2ccccc2)C1 (stereo unspecified) | inactive: -12.7%
